These results are taken from patent US20170210787A1 (Janssen / Centocor, published 2017).

In test [1] the target is T1, tau 186-253 (human, biotinylated).
T1 peptide: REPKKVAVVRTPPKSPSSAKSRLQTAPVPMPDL
In words: peptide ELISA, 1 ug/mL. (In general: ELISA stands for enzyme-linked immunosorbent assay.)

Test [2] deals with T1, tau 186-253. In words: ELISA on biotinylated peptide captured on streptavidin plate, IgG titrated [g].

In general, EC50 (read off the curve) refers to the concentration at which the effect is half-maximal. Higher therefore signals lower potency in that assay.

B1: CBTAU-24.1 (antibody, V domains shown)
VH: QVQLVQSGAEVKKPGASVKVSCTASGYTFTGYYLHWVRQAPGQGLEWMGWVNPRSGGTSYPPKFQGRVTMTRDTSINTAYMDLTWLTSDDTAVYYCAVGRIPDVTAFDIWGQGTPVTVSS
VL: DIQMTQSPDSLAVSLGERATINCKSSESLLYDSNNKNYLAWYQQKPGQPPKLLIYWASTRESGVPDRFSGSGSETDFTLTISSLQAEDVAVYHCQQYFSTPWTFGQGTKLEIK
For B1, the OD450 with tau 186-253 [1] is over 1.5 od. For the same molecule, in the test with tau 186-253 [2], the 50% effective concentration (EC50 (read off the curve)) was about 0.02 µg/mL.
